This experiment addresses Bifunctional protein GlmU (Escherichia coli (strain K12), UniProt P0ACC7). The experiment can be described thus: Inhibition Assay. Particulars: pH 7.35. An excerpt: Inhibition assay using GlmU bifuncation enzyme with various bacterial strains.

Sequences of proteins named here, by UniProt entry; tags and fusion partners are left off. A change or cut given only in a name is not applied to a line headed by its entry.
UniProt P0ACC7: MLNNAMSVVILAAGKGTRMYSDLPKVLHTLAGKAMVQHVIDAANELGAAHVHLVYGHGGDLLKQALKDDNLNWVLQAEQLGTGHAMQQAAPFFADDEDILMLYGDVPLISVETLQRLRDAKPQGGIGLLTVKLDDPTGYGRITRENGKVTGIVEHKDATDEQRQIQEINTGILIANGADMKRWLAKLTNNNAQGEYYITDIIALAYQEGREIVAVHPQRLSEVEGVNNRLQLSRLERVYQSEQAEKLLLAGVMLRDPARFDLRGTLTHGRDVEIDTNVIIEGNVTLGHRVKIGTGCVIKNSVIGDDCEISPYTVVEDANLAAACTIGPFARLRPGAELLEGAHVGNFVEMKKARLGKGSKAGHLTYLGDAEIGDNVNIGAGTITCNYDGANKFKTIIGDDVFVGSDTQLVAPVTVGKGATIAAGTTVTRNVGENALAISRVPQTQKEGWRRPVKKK

The structures appear in SMILES notation.

A word on the IC50: it is the point on the concentration scale where inhibition reaches its midpoint. For `COc1cc(OC)c(S(=O)(=O)N(c2ccccc2)c2ccc(N)cc2)cc1NC(=O)CCC(=O)O` [Sulfonamide, 3], the IC50 turned out to be 18 nM.

The values above are taken from BindingDB's records for doi:10.1074/jbc.M111.274068 (Astrazeneca, 2011).
